# Results as given in paper PMC7993833, “EDP-938, a novel nucleoprotein inhibitor of respiratory syncytial virus, demonstrates potent antiviral activities in vitro and in a non-human primate model” (PLoS Pathogens, 2021).
# Legend:
# RSV-A2 [1] = assay: Immunofluorescence analysis of RSV inclusion bodies; conditions: HEp-2; RSV-A2 MOI 3; 1000 nM; 8 hpi; N-protein antibody
# RSV-A2 [2] = assay: Primary viral transcription after synchronized infection (RT-qPCR of N gene); conditions: HEp-2; RSV-A2 MOI 3; 1000 nM added at 0 hpi; 0-6 hpi
# various RSV strains = assay: Impact of protein binding on anti-RSV activity; conditions: HSA 40 mg/mL or alpha-1-acid glycoprotein 0.9 mg/mL; range of RSV strains and cell types
smiles,measurement,setting,value
O=C1Nc2ccccc2C(c2ccccc2)=N[C@@H]1Nc1nnc(-c2ncc(C(F)(F)F)cc2N2CCOCC2)o1 [EDP-938],RSV inclusion body formation,RSV-A2 [1],the majority of the cells did not present inclusions
same,RSV primary transcription (positive sense N RNA),RSV-A2 [2],transcription was inhibited with no significant increase above the background
same,shift in potency in the presence of human serum albumin or alpha-1-acid glycoprotein,various RSV strains,2- to 5 fold
